# Experimental data taken from PubChem BioAssay AID1625 (Sanford-Burnham Center for Chemical Genomics, 2009).
# The entries are a selection whose mix differs from that of the whole data set. Some tests of the compounds listed are not included; inactive here does not mean inactive elsewhere. Active and inactive are the calls of the source.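 The calls were made as follows: active = z-score above 3 at 5 µM with at least 500 cells counted in the well; inconclusive = wells under 500 cells, flagged as cytotoxic or low count; inactive = the rest.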
# Assay: up-regulation of insulin promoter-GFP reporter – imaging, high-content screening, mouse beta cells (AID 1625)
# Conditions: MIN6 insulin promoter-GFP reporter, at 5 µM, hits give high values
row,Compound,z-score
1,CCN(CC)CC(C)C(C)OC(=O)C(O)(c1ccccc1)c1ccccc1 (stereo not given),inactive: -0.25
2,CC(C)N1C(=O)CC2(CCN(CCOC(=O)C(O)(c3ccccc3)c3ccccc3)CC2)C1=O,inactive: 1.07
3,CCN1CCCC(OC(=O)C2(O)c3ccccc3C=Cc3ccccc32)C1 (stereo not given),inactive: -0.4
4,C=CCN1CCN(CCOC(=O)C(O)(c2ccccc2)c2ccccc2)CC1,inactive: 0.02
5,CN(C)C1CCCC1OC(=O)C(O)(c1ccccc1)c1ccccc1 (stereo not given),inactive: -1.16
6,Cc1ccccc1C(=O)NCC1(N2CCCCC2)CCCCC1,inactive: -0.12
7,COc1cccc(C(=O)NCC2(N3CCCCC3)CCCCC2)c1,inactive: -0.24
8,CN(C)c1cccc(C(=O)NCC2(N(C)C)CCCCC2)c1,inactive: -0.06
9,COc1ccc(Br)c(C(=O)NCC2(N3CCCCC3)CCCCC2)c1,inactive: 1.22
10,O=C(OC1CN2CCC1CC2)C(CO)(c1ccccc1)c1ccccc1 (stereo not given),inactive: -2.74
